Source: patent US20230322745A1, “FUSED TRICYCLIC DERIVATIVE AND PHARMACEUTICAL APPLICATION THEREOF” (CHIA TAI TIANQING PHARMACEUTICAL GROUP CO., LTD., priority 2020, published 2023)
Counter-ions that a name gives are not always drawn. Like-named read-outs stand apart in the source and are kept apart here.

Chains of the proteins cited; added tags and fusions are not shown.
UniProt P20309, whole entry: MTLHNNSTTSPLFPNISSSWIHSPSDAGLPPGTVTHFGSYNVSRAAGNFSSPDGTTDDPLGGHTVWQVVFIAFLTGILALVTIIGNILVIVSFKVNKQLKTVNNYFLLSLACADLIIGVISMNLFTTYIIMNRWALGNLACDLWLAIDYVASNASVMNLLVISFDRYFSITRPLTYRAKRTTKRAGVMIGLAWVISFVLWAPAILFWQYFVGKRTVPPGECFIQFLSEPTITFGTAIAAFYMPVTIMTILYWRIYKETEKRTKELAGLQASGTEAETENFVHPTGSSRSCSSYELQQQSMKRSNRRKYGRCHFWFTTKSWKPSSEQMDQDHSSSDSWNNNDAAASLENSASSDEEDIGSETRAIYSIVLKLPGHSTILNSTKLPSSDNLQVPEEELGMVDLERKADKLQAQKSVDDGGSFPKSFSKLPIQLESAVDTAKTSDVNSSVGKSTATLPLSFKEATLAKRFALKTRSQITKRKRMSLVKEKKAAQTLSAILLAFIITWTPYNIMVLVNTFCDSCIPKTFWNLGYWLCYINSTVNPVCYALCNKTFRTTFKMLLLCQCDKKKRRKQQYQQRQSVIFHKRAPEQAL
UniProt P07550, whole entry: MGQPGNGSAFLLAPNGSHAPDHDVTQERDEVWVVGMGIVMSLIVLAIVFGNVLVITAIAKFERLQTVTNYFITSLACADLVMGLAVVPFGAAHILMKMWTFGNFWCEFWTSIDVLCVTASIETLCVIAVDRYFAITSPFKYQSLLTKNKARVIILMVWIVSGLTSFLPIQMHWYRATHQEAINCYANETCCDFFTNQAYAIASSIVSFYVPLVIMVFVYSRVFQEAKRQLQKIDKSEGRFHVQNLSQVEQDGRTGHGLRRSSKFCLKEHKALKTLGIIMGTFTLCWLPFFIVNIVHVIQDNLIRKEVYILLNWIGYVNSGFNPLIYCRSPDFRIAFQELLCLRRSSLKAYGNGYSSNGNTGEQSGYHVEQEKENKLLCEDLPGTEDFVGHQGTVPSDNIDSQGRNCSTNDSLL
UniProt P08588, whole entry: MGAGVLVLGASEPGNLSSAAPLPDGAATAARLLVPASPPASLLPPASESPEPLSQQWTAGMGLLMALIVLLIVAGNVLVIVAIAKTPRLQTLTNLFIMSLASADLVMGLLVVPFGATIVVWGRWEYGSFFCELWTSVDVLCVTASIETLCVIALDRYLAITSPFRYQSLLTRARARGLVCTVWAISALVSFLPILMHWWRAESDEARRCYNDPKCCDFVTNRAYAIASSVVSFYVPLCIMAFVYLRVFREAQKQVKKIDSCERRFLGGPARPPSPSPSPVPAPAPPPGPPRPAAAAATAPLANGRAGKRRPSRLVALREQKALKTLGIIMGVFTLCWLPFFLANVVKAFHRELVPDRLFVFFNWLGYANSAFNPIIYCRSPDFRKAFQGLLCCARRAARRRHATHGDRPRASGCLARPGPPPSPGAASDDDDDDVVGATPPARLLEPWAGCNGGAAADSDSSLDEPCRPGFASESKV
UniProt P08172, whole entry: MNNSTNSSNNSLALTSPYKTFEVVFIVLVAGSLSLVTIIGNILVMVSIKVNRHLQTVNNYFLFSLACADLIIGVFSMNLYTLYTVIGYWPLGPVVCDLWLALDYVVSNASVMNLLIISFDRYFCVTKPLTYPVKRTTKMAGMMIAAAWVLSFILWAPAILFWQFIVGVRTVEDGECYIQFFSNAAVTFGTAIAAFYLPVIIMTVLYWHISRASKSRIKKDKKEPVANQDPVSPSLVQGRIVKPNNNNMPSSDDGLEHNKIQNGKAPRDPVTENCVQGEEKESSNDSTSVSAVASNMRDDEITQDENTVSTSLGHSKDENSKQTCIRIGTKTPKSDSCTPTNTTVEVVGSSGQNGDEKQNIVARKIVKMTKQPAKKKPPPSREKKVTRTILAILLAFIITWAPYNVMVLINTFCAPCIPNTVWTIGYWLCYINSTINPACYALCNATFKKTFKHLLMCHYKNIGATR

Legend:
M3 receptor = M3 receptor (Homo sapiens (Human), UniProt P20309); assay: M3 receptor affinity test (3H-NMS competition); details: read-out: IC50, activity against the M3 receptor in vitro; 0.2 nM 3H-NMS, M3 receptor membrane protein, 2 h at room temperature; tested form: formate
Protocol: M3 receptor is a G protein-coupled receptor. In this experiment, the activity of test compounds against the M3 receptor in vitro was assayed by the competition of radioisotope labeled NMS and non-isotope labeled test compounds for an M3 binding site.
(§1) The experiment was performed by a radioisotope affinity assay. The M3 receptor membrane protein was prepared at 10 μg/mL by Biology Department of WuXi AppTec, and compounds were serially diluted in a 2.5-fold gradient in DMSO to obtain 10 concentrations. Radioisotope 3H-NMS was prepared at 0.2 nM in an assay buffer (10 mM HEPES, 1 mM MgCl2, pH 7.40). In formal testing, the experimental system comprising 1 of the test compound, 100 μL of M3 receptor membrane protein and 100 μL of radioisotope was shaken in a shaker at 300 RPM for 2 h at room temperature. A GF/C plate (Perkin Elmer, Cat No. 6055690) was prefoamed with 0.3% PEI, and the membrane proteins in the reaction solution were collected by filtration onto the GF/C plate. The signal values were read by a Perkin Elmer Microbeta2 instrument and the inhibition rate for each concentration point was shown as a percentage.

[1] = molecular target: β2 receptor (cells expressing human ADRB2 gene) (Homo sapiens (Human), UniProt P07550); assay: Agonistic effect on β2 receptor by HTRF cAMP method
Protocol: (§2) β2 receptor is a G protein-coupled receptor, which is mainly coupled with Gs protein, and can activate adenylate cyclase activity through the Gs protein after being activated by binding to the ligand, thereby increasing the level of intracellular cAMP. In this experiment, the agonistic activity of the compounds against the β2 receptor in vitro was assayed by the cAMP kit.
(§3) β2 cells (expressing human ADRB2 gene) from ICE Bioscience Inc. were grown under standard conditions. The cells were collected and diluted with 1× Stimulation Buffer, and 9 μL of the cell dilution was added to a white low-volume 384-well plate with 1000 cells seeded in each well. Compounds were serially diluted in DMSO in a 5-fold gradient to obtain 10 concentrations. Before testing, compounds that had been serially diluted in DMSO were subjected to 100-fold dilution with 1× Stimulation Buffer to obtain compound working solutions. The concentration of the vehicle DMSO was 0.1%. Eu-cAMP and ULight™-anti-cAMP were diluted to the working concentration with Detection buffer. 5 μL of Eu-cAMP diluent and 5 μL of ULight™-anti-cAMP diluent were sequentially added into corresponding experiment wells. After 1 h of incubation at room temperature, readings at 665 nm and 620 nm were measured under the excitation wavelength of 330 nm using a Biotek microplate reader. The activity of the compounds was obtained by plotting through Ratio (665/620) against the concentration of the compounds, fitting the curve by a nonlinear regression method using GraphPad Prism 7 software and calculating EC50.

[2] = molecular target: β1 receptor (cells expressing human ADRB1 gene) (Homo sapiens (Human), UniProt P08588); assay: Agonistic effect on β1 receptor by HTRF cAMP method
Protocol: as §2, with “β1” for “β2”
as §3, with “β1” for “β2”, “ADRB1” for “ADRB2”, “4000” for “1000”

M2 receptor = M2 receptor (Homo sapiens (Human), UniProt P08172); assay: M2 receptor affinity test (3H-NMS competition); details: read-out: IC50, activity against the M2 receptor in vitro, 0.2 nM 3H-NMS, M2 receptor membrane protein, 2 h at room temperature
Protocol: M2 receptor is a G protein-coupled receptor. In this experiment, the activity of test compounds against the M2 receptor in vitro was assayed by the competition of radioisotope labeled NMS and non-isotope labeled test compounds for an M2 binding site.
as §1, with “The M2 receptor membrane” for “The experiment was performed by a radioisotope affinity assay. The M3 receptor membrane”, “prepared at 100 μg/mL by” for “prepared at 10 μg/mL by”, “comprising 1 μL of the” for “comprising 1 of the”, “μL of M2 receptor membrane” for “μL of M3 receptor membrane”

[3] = read-out: EC50, agonistic activity against the β2 receptor in vitro, 1 h incubation at room temperature, tested form: formate
[4] = read-out: EC50, agonistic activity against the β1 receptor in vitro, 1 h incubation at room temperature, tested form: formate
[5] = read-out: EC50, agonistic activity against the β2 receptor in vitro, 1 h incubation at room temperature, tested form: TFA
[6] = read-out: EC50, agonistic activity against the β1 receptor in vitro, 1 h incubation at room temperature, tested form: TFA

`O=C(OC1CC2(C1)CN(CCCn1nnc3cc(CNC[C@H](O)c4ccc(O)c5[nH]c(=O)ccc45)c4c(c31)CCC4)C2)C(O)(c1cccs1)c1ccc(-c2ccccc2)s1` (single isomer, unassigned) was tested. Which IC50 (M3 receptor) did it give?
The IC50 was 9.36 nM.

For `CN(CCCn1nnc2cc(CNC[C@H](O)c3ccc(O)c4[nH]c(=O)ccc34)c3c(c21)CCC3)[C@H]1CC[C@H](OC(=O)C(O)(c2cccs2)c2ccc(C(C)(C)C)s2)CC1` (single isomer, unassigned) [Formate salt of compound 5], which EC50 [1, 3] is on record?
The EC50 was 2.63 nM.

And the IC50 (M3 receptor)?
Its IC50 is 13.8 nM.

What about the EC50 [2, 4] of the same molecule?
The EC50 was 231 nM.

With `CN(CCCn1nnc2cc(CNC[C@H](O)c3ccc(O)c4[nH]c(=O)ccc34)c3c(c21)CCC3)[C@H]1CC[C@H](OC(=O)C(O)(c2cccs2)c2ccc(C(C)(C)C)s2)CC1` (single isomer, unassigned) [Formate salt of compound 6] as the molecule, how does the EC50 [2, 4] read?
The EC50 was 278 nM.

With `O=C(OC1CC2(C1)CN(CCCn1nnc3cc(CNC[C@H](O)c4ccc(O)c5[nH]c(=O)ccc45)c4c(c31)CCC4)C2)C(O)(c1cccs1)c1cc2ccccc2s1` (single isomer, unassigned) [Formate salt of compound 20] as the molecule, how does the IC50 (M3 receptor) read?
The IC50 was 31.1 nM.

Which EC50 [2, 4] does the source give for `O=C(OC1CC2(C1)CN(CCCn1nnc3cc(CNC[C@H](O)c4ccc(O)c5[nH]c(=O)ccc45)c4c(c31)CCC4)C2)C(O)(c1cccs1)c1cc2ccccc2s1` (single isomer, unassigned) [Formate salt of compound 21] here?
The EC50 was 276 nM.

For `CN(CCCn1nnc2cc(CNC[C@H](O)c3ccc(O)c4[nH]c(=O)ccc34)c3c(c21)CCC3)[C@H]1CC[C@H](OC(=O)C(O)(c2cccs2)c2ccc(-c3ccccc3)s2)CC1` (single isomer, unassigned) [Formate salt of compound 22], which EC50 [1, 3] is on record?
The EC50 was 20.8 nM.

`CN(CCCn1nnc2cc(CNC[C@H](O)c3ccc(O)c4[nH]c(=O)ccc34)c3c(c21)CCC3)[C@H]1CC[C@H](OC(=O)C(O)(c2cccs2)c2ccc(-c3ccccc3)s2)CC1` (single isomer, unassigned) [Formate salt of compound 23] was tested. Which EC50 [1, 3] did it give?
The EC50 was 16.8 nM.

`O=C(OC1COC2(CCN(CCCn3nnc4cc(CNC[C@H](O)c5ccc(O)c6[nH]c(=O)ccc56)c5c(c43)CCC5)CC2)C1)C(O)(c1cccs1)c1cccs1` (single isomer, unassigned) [Formate salt of compound 24] was tested. Which EC50 [1, 3] did it give?
The EC50 was 158 nM.

What about the IC50 (M3 receptor) of the same molecule?
Its IC50 is 0.22 nM.

What about the IC50 (M2 receptor; tested form: formate) of the same molecule?
Its IC50 is 0.014 nM.

And the EC50 [2, 4]?
The EC50 was 155 nM.

For `O=C(OC1COC2(CCN(CCCn3nnc4cc(CNC[C@H](O)c5ccc(O)c6[nH]c(=O)ccc56)c5c(c43)CCC5)CC2)C1)C(O)(c1cccs1)c1cccs1` (single isomer, unassigned) [Formate salt of compound 25], which EC50 [1, 3] is on record?
The EC50 was 0.388 nM.

What about the IC50 (M3 receptor) of the same molecule?
Its IC50 is 0.179 nM.

What about the IC50 (M2 receptor; tested form: formate) of the same molecule?
Its IC50 is 0.03 nM.

What about the EC50 [2, 4] of the same molecule?
The EC50 was 193 nM.

Which EC50 [1, 3] does the source give for `Cc1ccc(C(O)(C(=O)O[C@H]2CC[C@H](N(C)CCCn3nnc4cc(CNC[C@H](O)c5ccc(O)c6[nH]c(=O)ccc56)c5c(c43)OCO5)CC2)c2cccs2)s1` (single isomer, unassigned) [Formate salt of compound 34] here?
Its EC50 is 0.405 nM.

What about the IC50 (M3 receptor) of the same molecule?
The IC50 was 0.657 nM.

And the IC50 (M2 receptor; tested form: formate)?
The IC50 was 0.248 nM.

What about the EC50 [2, 4] of the same molecule?
The EC50 was 37.3 nM.

Which results are given for `Cc1ccc(C(O)(C(=O)O[C@H]2CC[C@H](N(C)CCCn3nnc4cc(CNC[C@H](O)c5ccc(O)c6[nH]c(=O)ccc56)c5c(c43)OCO5)CC2)c2cccs2)s1` (single isomer, unassigned) [Formate salt of compound 35]?
EC50 [1, 3]: 0.671 nM; IC50 (M3 receptor): 0.213 nM; IC50 (M2 receptor; tested form: formate): 0.588 nM; EC50 [2, 4]: 55.6 nM

Which EC50 [1, 3] does the source give for `Cc1ccc(C(O)(C(=O)O[C@H]2CC[C@H](N(C)CCCn3nnc4cc(CNC[C@H](O)c5ccc(O)c6[nH]c(=O)ccc56)c5c(c43)COC5)CC2)c2cccs2)s1` (single isomer, unassigned) [Formate salt of compound 36] here?
Its EC50 is 2.45 nM.

What about the IC50 (M3 receptor) of the same molecule?
Its IC50 is 0.792 nM.

What about the IC50 (M2 receptor; tested form: formate) of the same molecule?
The IC50 was 1.74 nM.

And the EC50 [2, 4]?
The EC50 was 50.5 nM.

With `Cc1ccc(C(O)(C(=O)O[C@H]2CC[C@H](N(C)CCCn3nnc4cc(CNC[C@H](O)c5ccc(O)c6[nH]c(=O)ccc56)c5c(c43)COC5)CC2)c2cccs2)s1` (single isomer, unassigned) [Formate salt of compound 37] as the molecule, how does the EC50 [1, 3] read?
Its EC50 is 1.93 nM.

What about the IC50 (M3 receptor) of the same molecule?
Its IC50 is 0.871 nM.

What about the IC50 (M2 receptor; tested form: formate) of the same molecule?
The IC50 was 2.01 nM.

What about the EC50 [2, 4] of the same molecule?
Its EC50 is 48 nM.

`Cc1ccc(C(O)(C(=O)O[C@H]2CC[C@H](N(C)CCCn3cnc4cc(CNC[C@H](O)c5ccc(O)c6[nH]c(=O)ccc56)c5c(c43)CCC5)CC2)c2cccs2)s1` (single isomer, unassigned) [Formate salt of compound 38] was tested. Which EC50 [1, 3] did it give?
Its EC50 is 13.5 nM.

What about the IC50 (M3 receptor) of the same molecule?
The IC50 was 0.555 nM.

And the IC50 (M2 receptor; tested form: formate)?
Its IC50 is 0.842 nM.

And the EC50 [2, 4]?
Its EC50 is 338 nM.

`O=C(OC1CCN(CCCn2nnc3cc(CNC[C@H](O)c4ccc(O)c5[nH]c(=O)ccc45)c4c(c32)CCC4)CC1)C(O)(c1cccs1)c1ccc(Br)s1` (single isomer, unassigned) [Trifluoroacetate salt of compound 8] was tested. Which EC50 [1, 5] did it give?
The EC50 was 1.62 nM.

And the EC50 [2, 6]?
The EC50 was 395 nM.

With `O=C(OC1CCN(CCCn2nnc3cc(CNC[C@H](O)c4ccc(O)c5[nH]c(=O)ccc45)c4c(c32)CCC4)CC1)C(O)(c1cccs1)c1ccc(Br)s1` (single isomer, unassigned) [Trifluoroacetate salt of compound 9] as the molecule, how does the EC50 [2, 6] read?
Its EC50 is 696 nM.

`Cc1ccc(C(O)(C(=O)O[C@H]2CC[C@H](N(C)CCCn3nnc4cc(CNC[C@H](O)c5ccc(O)c6[nH]c(=O)ccc56)c5c(c43)CCC5)CC2)c2cccs2)s1` (single isomer, unassigned) [Trifluoroacetate salt of compound 13] was tested. Which EC50 [1, 5] did it give?
Its EC50 is 1.73 nM.

What about the IC50 (M2 receptor; tested form: TFA) of the same molecule?
The IC50 was 0.24 nM.

And the EC50 [2, 6]?
The EC50 was 142 nM.

`Cc1ccc(C(O)(C(=O)O[C@H]2CC[C@H](N(C)CCCn3nnc4cc(CNC[C@H](O)c5ccc(O)c6[nH]c(=O)ccc56)c5c(c43)CCC5)CC2)c2cccs2)s1` (single isomer, unassigned) [Trifluoroacetate salt of compound 14] was tested. Which EC50 [2, 6] did it give?
Its EC50 is 127 nM.
